“Also recorded” adds a separate entry of the source. Like-named read-outs stand apart in the source and are kept apart here.
Assays:
[1] = tested on: PML-retinoic acid receptor-α; test: 3XRARE-Luc reporter transfection assay in 293T cells, PML-RARα; type: cell-based, human
Experimental: (§1) The experiment was performed in medium reconstituted with serum not depleted of endogenous retinoids. Luciferase activity was measured in a scintillation counter and normalized with the internal β-galactosidase standard. […] Note that in panels A and B luciferase activity is expressed by different scales.
(§2) Luciferase activity was normalized with the internal β-galactosidase standard. Values represent the averages of two independent transfections.
(§3) 293T cells and KG1 cells were transfected by calcium phosphate precipitation, and by electroporation as already described^25, and luciferase activity of each sample was normalized against internal control β-galactosidase activity^25.
(§4) Nuclear receptor co-repressors form complexes with histone deacetylases (HDAC1 or 2), resulting in nucleosome assembly and transcriptional repression^15.

[2] = tested on: PLZF-retinoic acid receptor-α; test: 3XRARE-Luc reporter transfection assay in 293T cells, PLZF-RARα; type: cell-based, human
Experimental: as §1, §2, §3, §4

[3] = tested on: PLZF-retinoic acid receptor-α bone marrow leukaemic cells; test: Myeloid differentiation (NBT assay) of PLZF-RARα bone marrow leukaemic cells; type: cell-based, mouse; settings: retinoic acid 10^-7 M and 10^-6 M
Experimental: Myeloid differentiation was evaluated by performing the nitroblue tetrazolium (NBT) assay, and cell proliferation by measuring DNA synthesis quantitating incorporation of ^3 H-thymidine.
(§5) Differentiation was evaluated performing the nitroblue tetrazolium (NBT) assay and morphological differential count^32. Proliferation of bone marrow cells was evaluated by measuring DNA synthesis quantitating incorporation of ^3 H-thymidine (Amersham). Bone marrow cells were plated at a density of 2×10^6 cells/ml and were pulsed with ^3 H-thymidine at a final concentration of […].

[4] = tested on: blasts from both X-retinoic acid receptor-α leukaemias
Experimental: as §5

NB4 cells [5] = test: NB4 cell proliferation (3H-thymidine incorporation); type: cell-based, human; settings: all-trans retinoic acid alone
Experimental: (§6) NB4 cells, a line that stably carries the PML/RAR-α fusion protein of acute promyelocytic leukemia^71, were maintained in RPMI1640 medium, which was supplemented with 10% fetal bovine serum and 1% of penicillin-streptomycin, at 37° C. in 5% CO2 atmosphere. Cultures were established at an initial density of 10^5 cells/ml in the presence or absence of drugs at various concentrations. Cellular proliferation was measured by assessment of ^3 H-thymidine incorporation. Aliquots (180 μl) from each culture were placed into 96-well plates in triplicate after 20 hrs of incubation, and 0.5 μCi of ^3 H-thymidine in 20 μl of medium was added to each well. […] The proportion of cells undergoing apoptosis was determined by Annexin V staining^72. […] Annexin V and propidium iodide positivity were analyzed by flow cytometry (Becton-Dickinson, Mountainview, Calif.). Cell viability was measured after 4 days of incubation by using trypan blue exclusion. Cellular differentiation was evaluated at day 4 of incubation using both an assay for nitroblue tetrazolium (NBT) reduction and expression of CD11b (a cell surface differentiation antigen)^73. […] Expression of CD11b, including percentage of positive cells and the fluorescence intensity, was determined by using flow cytometry (Becton Dickinson).

NB4 cells [6] = test: NB4 cell apoptosis (Annexin V flow cytometry); type: cell-based, human; settings: all-trans retinoic acid alone, 2 days
Experimental: as §6

NB4 cells [7] = test: NB4 cell differentiation (CD11b expression and NBT reduction); type: cell-based, human; settings: all-trans retinoic acid alone, 4 days
Experimental: as §6

[8] = tested on: acute promyelocytic leukemia; type: in vivo, human
Description: The patient used for clinical study is a person who was diagnosed with acute promyelocytic leukemia in 1994.

[9] = tested on: promyelocytic leukaemia-retinoic acid receptor-α leukaemia
[10] = tested on: PLZF-retinoic acid receptor-α leukaemia
[11] = tested on: PML-retinoic acid receptor-α fusion protein / SMRT
[12] = tested on: PLZF-retinoic acid receptor-α/SMRT co-repressor complex
[13] = tested on: acute promyelocytic leukemia
[14] = tested on: PML/RAR-α mSin-3/N-CoR/HDAC complex; settings: all-trans retinoic acid alone, in vitro; cited from earlier work
[15] = tested on: human APL patients harboring t(11;17); settings: upon retinoic acid treatment; cited from earlier work
[16] = tested on: human APL patients harboring t(15;17); settings: retinoic acid treatment not accompanied by chemotherapy; cited from earlier work
[17] = tested on: acute promyelocytic leukemia; settings: similar highly resistant patients; cited from earlier work
[18] = retinoic acid per os daily, 1.5 mg per gram of mouse body weight
[19] = retinoic acid treated, untreated mice died within 4 weeks

In the case of `CC1=C(/C=C/C(C)=C/C=C/C(C)=C/C(=O)O)C(C)(C)CCC1` [retinoic acid, all-trans-retinoic acid], the “transactivation of reporter / relief of transcriptional repression” value [1] is reported as “can partially overcome; also recorded: can stimulate the transactivation of the reporter gene”, the “transactivation of reporter / relief of transcriptional repression” value [2] is reported as “but not PLZF-retinoic acid receptor-α transcriptional repression; also recorded: negligible” and the differentiation [3] is reported as “little if no effects”. The differentiation ([3]; listed as Retinoic acid) was “minimal”, the differentiation in vitro [4] was “induced differentiation in vitro” and the growth of blasts [4] was “inhibited the growth of blasts”. The proliferation (NB4 cells [5]) was “inhibition of proliferation”, the induction of apoptosis (NB4 cells [6]) was “relatively little effect upon induction of apoptosis” and the differentiation (NB4 cells [7]) was “dose-dependent induction of differentiation”. The Response ([8]; Apr. `98, after relapse) was “Progression”, the Response ([8]; Nov. `94) was “Complete remission” and the Response ([8]; Nov. `95, after relapse) was “Complete remission”. The Response ([8]; Oct. `97, after relapse) was “Progression”, the “relapse and resistance after remission” value ([9]; continued retinoic acid treatment, also at five fold higher doses) was “relapsed shortly after remission was achieved, were refractory to further retinoic acid treatment” and the “white blood cell count kinetics” value ([9]; peripheral blood, weekly counts, retinoic acid 1.5 mg per gram daily) was “dramatic increase of white blood cells upon the first week of treatment followed by a decrease to normal values by the second and third week of treatment”. The “remission rate (RR), complete clinical remission” value [9, 18] was 80%, the time to remission [9, 18] was “remission was obtained by week three” and the survival from diagnosis [9, 19] was “up to eight week from diagnosis”. For the same compound, the “white blood cell count” value ([10]; after one week of retinoic acid treatment, 1.5 mg per gram daily) was “increase of white blood cells”, the “leukaemias in remission by the third week of treatment” value ([10]; high dose retinoic acid, 7.5 mg per gram body weight daily) was “three out of four” and the “remission rate (RR), clinical remission” value ([10]; high dose retinoic acid, 7.5 mg per gram body weight, daily intraperitoneal injections) was 75%. For the same compound, the survival from diagnosis [10, 19] was “up to eight week from diagnosis”, the “co-immunoprecipitation of endogenous SMRT” value [11] was “not with the wild-type retinoic acid receptor-α or PML-retinoic acid receptor-α fusion protein” and the “co-immunoprecipitation of endogenous SMRT” value [12] was “endogenous SMRT co-immunoprecipitated only with the PLZF-retinoic acid receptor-α chimeric protein”. The “dissociation of co-repressor complex” value [12] was “could dissociate, albeit not completely”, the repeat bone marrow ([13]; after 11 days of all-trans retinoic acid alone) was “showed no improvement” and the “peripheral blood leukocyte count” value ([13]; during treatment with all-trans retinoic acid alone) was “absence of change”. The “displacement of the repressor complex” value [14] was “displaced the repressor complex in retinoid-sensitive but not retinoid-resistant NB4 cells”, the complete remission [15] was “never achieved complete remission” and the “resistance to retinoic acid” value [16] was “invariably occurred”. The “plasma concentration and clinical response on increasing the dose” value [17] was “neither increases the plasma concentration nor recaptures the clinical response”.
